Measured values taken from US20190255048A1, “PYRIMIDINE COMPOUND OR SALT THEREOF IN APPLICATION FOR MANUFACTURING PHARMACEUTICAL PRODUCT FOR PREVENTING AND/OR TREATING FLT3-RELATED DISEASE OR DISORDER” (SHENZHEN HAIBIN PHARMACEUTICAL CO., LTD, priority 2016, published 2019).

By UniProt entry, the sequences of proteins in these tests, tags left out. Residues count along the entry.
UniProt P36888, 27-993 limits assumed: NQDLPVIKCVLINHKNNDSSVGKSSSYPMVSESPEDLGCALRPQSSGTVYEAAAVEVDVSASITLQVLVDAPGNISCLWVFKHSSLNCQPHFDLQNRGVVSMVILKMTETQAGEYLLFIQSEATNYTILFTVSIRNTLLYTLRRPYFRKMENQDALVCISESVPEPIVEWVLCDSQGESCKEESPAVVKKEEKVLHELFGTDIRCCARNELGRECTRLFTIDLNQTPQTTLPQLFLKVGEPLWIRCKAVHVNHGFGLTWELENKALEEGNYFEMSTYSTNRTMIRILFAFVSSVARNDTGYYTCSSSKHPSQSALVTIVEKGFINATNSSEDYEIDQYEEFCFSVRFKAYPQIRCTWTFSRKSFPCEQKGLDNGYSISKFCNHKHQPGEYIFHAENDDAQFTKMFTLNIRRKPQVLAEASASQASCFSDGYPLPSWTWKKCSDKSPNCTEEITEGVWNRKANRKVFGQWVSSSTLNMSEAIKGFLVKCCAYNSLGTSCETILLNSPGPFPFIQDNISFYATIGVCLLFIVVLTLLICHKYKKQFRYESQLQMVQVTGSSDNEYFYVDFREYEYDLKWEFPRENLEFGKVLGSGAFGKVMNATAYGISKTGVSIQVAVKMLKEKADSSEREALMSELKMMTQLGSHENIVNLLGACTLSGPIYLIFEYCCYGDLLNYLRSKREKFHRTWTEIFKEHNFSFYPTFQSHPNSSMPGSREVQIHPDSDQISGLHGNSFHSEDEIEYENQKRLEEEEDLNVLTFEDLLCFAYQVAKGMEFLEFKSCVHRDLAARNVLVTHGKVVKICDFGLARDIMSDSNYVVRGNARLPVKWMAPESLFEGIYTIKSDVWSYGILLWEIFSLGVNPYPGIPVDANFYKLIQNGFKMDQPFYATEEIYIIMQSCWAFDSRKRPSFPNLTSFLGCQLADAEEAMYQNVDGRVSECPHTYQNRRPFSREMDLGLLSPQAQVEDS

Key:
FLT3 kinase = FLT3 kinase (Homo sapiens, UniProt P36888); assay: Activity of inhibiting FLT3 kinase (fluorescein labeled peptide kinase assay); details: read-out: FLT3 (IC50); in vitro kinase assay, 28° C.; tested form: phosphate
Description: Activity of Inhibiting FLT3 Kinase
1. Preparation of 1 × Kinase Buffer and Termination Buffer:
(1) MnCl2-free 1× kinase buffer: 50 mM HEPES, pH 7.5, 0.0015% Brij-35, 10 mM MgCl2, 2 mM DTT;
(2) Termination buffer: 100 mM HEPES, pH 7.5, 0.015% Brij-35, 0.2% Coating Reagent #3, 50 mM EDTA.
2. Preparation of compounds for testing kinase: the compounds are diluted continuously.
(1) the compound was diluted to 50 times the maximum final concentration with 100% DMSO. […] of the solution containing the compound at this concentration was transferred to one hole of 96-well plate;
(2)10 concentrations of compounds were prepared by diluting 20 mL original solution with 60 mL DMSO;
(3) […] solution of 100% DMSO was added into two empty holes as compound-free control and enzyme-free control; (4) a transitional plate was prepared, 10 mL compounds at different concentrations were transferred from the original plate to the transitional plate respectively, 90 mL 1× kinase buffer was added, and then mixed under oscillation for 10 minutes;
(5) preparation of an experimental plate: 5 mL solution containing compounds was transferred from the hole of the transitional plate of the 96-well plate to the corresponding hole of 384-well plate.
(1) Preparation of 2.5× enzyme solution: enzyme was added to the 1× kinase buffer; […]
Data was read and collected.
(1) detected data was copied and converted […]

[1] = test system: human acute monocytic leukemia cell strain MV4-11 (expressing FLT3/ITD mutant gene); assay: Effects on proliferation of tumor cells (Cell Titer-Glo), MV4-11; details: read-out: IC50 (μM), proliferation of cells, MV4-11, MV4-11, incubated for 72 hours, tested form: phosphate
Description: (§1) This example tested the effects of the compounds of the present invention (the compound shown in Formula (I), hydrochloride salt, phosphate, mesylate, lactate, acetate, sulphate, and hydrobromide thereof prepared in EXAMPLES 1-8 respectively) on proliferation of tumor cells, and further evaluated the inhibitory effects of the compounds on proliferation of tumor cells and selectivity of the compounds in inhibiting proliferation of tumor cells.
(1) human acute monocytic leukemia cell strain MV4-11 (expressing FLT3/ITD mutant gene);
(§2) The compounds at different concentration (0.000508 μM, 0.00152 μM, 0.00457 μM, 0.0137 μM, 0.0411 μM, 0.123 μM, 0.370 μM, 1.11 μM, 3.33 μM, 10 μM in DMSO) were added to the above-mentioned cells respectively, incubated for 72 hours, Cell Titer-Glo (Promega, United States of America) Chemiluminescence Kit was used to quantify ATP in living cells to detect the number of living cells, the results were shown as Table 3

[2] = test system: human acute myeloid leukemia cell strain U937 (expressing wild-type FLT3 gene); assay: Effects on proliferation of tumor cells (Cell Titer-Glo), U937; details: read-out: IC50 (μM), proliferation of cells, U937, U937, incubated for 72 hours, tested form: phosphate
Description: as §1
(5) human acute myeloid leukemia cell strain U937 (expressing wild-type FLT3 gene);
as §2

[3] = test system: mouse TEL-BaF3-FLT3/ITD (stably expressing FLT3/ITD mutant activated kinase); assay: Effects on proliferation of cells (Cell Titer-Glo), TEL-BaF3-FLT3/ITD; details: read-out: IC50 (μM), proliferation of cells, TEL-BaF3-FLT3/ITD, incubated for 72 hours, tested form: phosphate
Description: as §1
(6) mouse TEL-BaF3-FLT3/ITD (stably expressing FLT3/ITD mutant activated kinase);
as §2

[4] = test system: mouse TEL-FLT3-BaF3 (stably expressing FLT3 kinase); assay: Effects on proliferation of cells (Cell Titer-Glo), TEL-FLT3-BaF3; details: read-out: IC50 (μM), proliferation of cells, TEL-FLT3-BaF3, TEL-FLT3-BaF3, incubated for 72 hours, tested form: phosphate
Description: as §1
(8) mouse TEL-FLT3-BaF3 (stably expressing FLT3 kinase);
as §2

[5] = test system: subcutaneous xenograft tumor of human MV-4-11; assay: Therapeutic effects on subcutaneous xenograft tumor of human MV-4-11 in nude mice; details: MV-4-11 subcutaneous xenograft, 15 mg/kg intraperitoneal injection, 3 times a day for 21 days, tested form: phosphate
Description: Preparation of test samples: all samples were prepared with 5% anhydrous ethanol, 5% Cremophor EL and 90% physiological saline.
Animals: BALB/cA-nude mice, 6-7 weeks, female ♀ purchased from Shanghai Lingchang Biotechnology Co., Ltd. Production license number was SC×K(Hu)2013-0018; animal certification number was 2013001810589.
Feeding environment: SPF Level.
Experiment steps: human acute myeloid leukemia cells MV-4-11 were inoculated subcutaneously in nude mice, after the tumor grows to 80-150 mm^3, animals were randomly divided into groups with 6 mice each group. The dosage was 15 mg/kg, the drugs were administrated by intraperitoneal injection, 3 times a day for 21 days. The volume of tumor was measured, the weight of mouse was weighed and the data were recorded.
The formula for calculating the volume of tumor (V) was: […]
Wherein a and b represented length and width respectively.
T/C (%)=(T−T0)/(C−C0)×100
Wherein T and C were the volume of tumor when the experiment was completed; T0 and C0 were the volume of tumor when the experiment was started.
The inhibited rate of tumor was calculated, the results were shown as Table 4.

## Nc1sc(-c2c(F)cccc2F)nc1C(=O)Nc1cncnc1OCC1CCNCC1
FLT3 kinase
  IC50: 17 nM
[1]
  IC50: 0.33 µM
[2]
  IC50: 6.43 µM
[3]
  IC50: 0.03 µM
[4]
  IC50: 0.02 µM
[5]
  Inhibited Rate of Tumor (%): 69%
